Test results published in patent publication US12098175B2, “Peptide inhibitors targeting the CXCL12/HMGB1 interaction and uses thereof” (INSTITUTE FOR RESEARCH IN BIOMEDICINE, priority 2019, dated 2024).

Protein sequences, listed by entry. Tags and fused reporters are not part of them. Residues count along the entry.
UniProt P48061, 22-93, species assumed: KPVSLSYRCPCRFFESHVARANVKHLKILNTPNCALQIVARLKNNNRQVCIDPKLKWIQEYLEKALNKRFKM

Tests used:
CXCL12 [1] = molecular target: T1, CXCL12 (Homo sapiens, UniProt P48061); experiment: In vitro chemotaxis: migration induced by CXCL12 alone, 300.19 PreB cells expressing human CXCR4; type: cell-based, murine; conditions: peptides at 100 μM; CXCL12 1 nM; 300.19 PreB cells with human CXCR4
Procedure: Further experiments were performed with CXCL12 alone to identify peptides affecting cell migration induced by CXCL12 alone. To this end, experiments were performed in a similar manner as described in Example 2. Accordingly, murine 300.19 PreB cells stably transfected with human CXCR4 were used as described in Example 2.
Briefly, chemotaxis was performed using Boyden chambers with 5 μm pore membranes. Murine 300.19 PreB cells stably transfected with the human CXCR4 were allowed to migrate for 90 min at 37° C. in response to a sub-optimal CXCL12 concentration (1 nM). 200 μM glycyrrhizin were used as positive control.

CXCL12 [2] = molecular target: T1, CXCL12; experiment: In vitro chemotaxis: migration induced by CXCL12 alone, primary human monocytes; type: cell-based; conditions: peptide at 100 μM, CXCL12 1 nM
Procedure: In a further experiment, CXCL12-induced cell migration was assessed, similar to Example 3, but using human monocytes as described above. Briefly, chemotaxis was performed using Boyden chambers with 5 μm pore membranes. Freshly isolated human monocytes were allowed to migrate for 90 min at 37° C. in response to a sub-optimal CXCL12 concentration (1 nM). 200 μM glycyrrhizin were used as positive control.

[3] = tested on: murine 300.19 PreB cell line expressing the human CXCR4; experiment: Toxicity, AnnexinV-FITC/Propidium Iodide flow cytometry, 300.19 PreB cells; type: cell-based; conditions: 100 μM, 2 h; murine 300.19 PreB cells expressing human CXCR4
Procedure: (§1) In addition, toxicity of HBP08 was tested. Toxicity was assessed in the murine 300.19 PreB cell line expressing the human CXCR4, and on human monocytes. Cells were incubated for 2 h in the presence of HBP08 at 100 μM, stained by AnnexinVFITC/Propidium Iodide, and cell viability was analyzed by flow cytometry in comparison to the untreated control, following manufacturer's instructions.

human monocytes = experiment: Toxicity, AnnexinV-FITC/Propidium Iodide flow cytometry, human monocytes; type: cell-based; conditions: 100 μM, 2 h
Procedure: as §1

CC[C@H](C)[C@H](NC(=O)[C@H](Cc1c[nH]c2ccccc12)NC(=O)[C@H](CCCNC(=N)N)NC(=O)[C@H](CCC(=O)O)NC(=O)[C@H](Cc1ccc(O)cc1)NC(=O)[C@H](Cc1cnc[nH]1)NC(=O)[C@H](Cc1ccc(O)cc1)NC(=O)CN)C(=O)N[C@@H](Cc1cnc[nH]1)C(=O)O [HBP08]
Effect on cell migration induced by CXCL12 alone (CXCL12 [1]): do not affect CXCL12-induced cell migration
Effect on migration induced by CXCL12 alone (CXCL12 [2]): without altering the migration induced by CXCL12 alone
Toxicity (cell viability) [3]: no toxicity
Toxicity (cell viability) (human monocytes): no toxicity
